This is an account of results in patent US11866416B2, “Streptococcus mutans glucosyl transferase inhibitors for dental caries therapy” (UAB Research Foundation, priority 2018, dated 2024).

The experiment deals with S. mutans. It is filed as cell-based, Streptococcus mutans. How it is done: Cell viability of S. mutans, S. gordonii, S. sanguinis, Aggregatibacter actinomycetemcomitans and Actinomyces. […] The number of colony-forming units (CFU) per milliliter of each sample treated with selected compounds at different concentrations was enumerated after incubation for 24 h at 37° C. and compared to the values obtained from the DMSO control group. Overnight broth cultures were transferred by 1:50 dilutions into fresh THB medium and were allowed to grow until mid-exponential phase (OD470 nm 0.6) before transfer to 96-well plates containing desired concentration of the compound. After 16 h incubation, bacterial growth was measured at OD470, and normalized to the DMSO control (100%).
Cell viability of S. mutans and commensal S. gordonii and S. sanguinis. Effects of lead small molecules on cell viability were examined. The number of colony-forming units (CFU) per milliliter for each compound at different concentrations was determined after incubation for 24 h at 37° C. and compared to the values obtained from the DMSO control group.
Cell viability of S. mutans and commensal S. gordonii and S. sanguinis. […] DMSO served as a control group and provided a relative comparison for the number of colony-forming units (CFU) per milliliter for each compound at different concentrations was determined after incubation for 24 h at 37° C. […]

With `N=C(N)c1ccc(/C=C/c2ccc(C(=N)N)cc2O)cc1` [Entry 5], the Selectivity was 1.7.
